Protein sequences, listed by entry. Tags and fused reporters are not part of them.
UniProt P21554, whole entry: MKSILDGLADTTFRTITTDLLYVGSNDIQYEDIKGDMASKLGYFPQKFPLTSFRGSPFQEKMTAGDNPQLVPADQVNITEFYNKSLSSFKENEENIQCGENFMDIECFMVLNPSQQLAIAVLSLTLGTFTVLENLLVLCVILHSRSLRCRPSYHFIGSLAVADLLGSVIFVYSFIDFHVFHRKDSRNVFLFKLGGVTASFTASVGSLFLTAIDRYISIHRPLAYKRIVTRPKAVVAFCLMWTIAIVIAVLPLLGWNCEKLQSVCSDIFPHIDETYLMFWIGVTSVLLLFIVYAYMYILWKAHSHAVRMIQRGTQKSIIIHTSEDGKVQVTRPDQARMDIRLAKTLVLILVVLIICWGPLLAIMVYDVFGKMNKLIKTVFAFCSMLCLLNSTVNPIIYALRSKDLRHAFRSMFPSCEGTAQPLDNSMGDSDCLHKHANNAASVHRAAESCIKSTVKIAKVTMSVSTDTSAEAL

In article PMC4283194 (Neuroimage, 2014):

Legend:
[1] = measured LogD at pH 7.4; ref Yasuno et al., 2008; cited from earlier work
[2] = biological target: T1, CB1 receptor (Homo sapiens, UniProt P21554); test: [11C]MePPEP PET, VT by reversible three-compartment model with variable blood volume (4kbv); type: in vivo; parameters: assess the stability of CB1-receptor quantification in humans in vivo; from tissue; host or cells: living human brain (healthy volunteers), in vivo PET; VT median: unit not given beside the values
Procedure: (§1) Continuous and intermittent blood samples were collected to allow the subsequent generation of metabolite-corrected arterial plasma time–activity curves (TACs) ([Hammers et al., 2008]). During the first 15 min blood was withdrawn continuously at a rate of 300 ml/h and radioactivity measured in a BGO detection system ([Jones et al., 1994]). To quantify plasma and whole blood radioactivity, as well as to allow quantification of the parent fraction of the radiotracer, intermittent discrete (10 ml) samples were taken with heparinised syringes before the scan (baseline) and at the following time points after scan start: 3, 5, 10, 15, 20, 30, and 50 min. At 75 min, a larger 17 ml sample was taken to allow quantification despite radioactivity decay. […] Continuous plasma input functions (IF) were derived by cross-calibration and combination of the continuous and discrete data, multiplication with the fitted plasma-over-blood ratio, and correction for parent radiotracer fraction, as described in detail in previous studies ([Hammers et al., 2007a], [Jones et al., 1994]).
K1 and k2 were calculated as for the 2kbv compartmental model described above; in addition, two additional rate constants were estimated to describe transfer relating to the third compartment: k3, which describes the transfer from the free and non-specifically bound compartment to the specifically bound (third) compartment; and k4, which describes the opposite transfer ([Cunningham et al., 1991], [Huang et al., 1980]). Again, a variable blood volume term was also computed. According to compartmental model equations ([Gunn et al., 2001], [Watabe et al., 2006]):(2) VT=K1/k21+k3/k4.

[3] = biological target: T1, CB1 receptor; test: [11C]MePPEP PET, modified standard uptake values (mSUV); type: in vivo; parameters: assess the stability of CB1-receptor quantification in humans in vivo; from tissue; host or cells: living human brain (healthy volunteers), in vivo PET; conditions: for mSUV median: ~30–60 min after injection
Procedure: Modified standard uptake values (mSUVs; [Innis et al., 2007]) for frames 25–31, i.e. from 29 min 50 s to 58 min 50 s after injection, were also derived for the ROIs according to ([Goffin et al., 2011]):(4) activity×weightkg+70kg/2/injecteddose.

[4] = biological target: T1, CB1 receptor; test: [11C]MePPEP PET, VT by rank shaping regularised spectral analysis (RS-SA); type: in vivo; parameters: assess the stability of CB1-receptor quantification in humans in vivo; from tissue; host or cells: living human brain (healthy volunteers), in vivo PET; VT median: unit not given beside the values
Procedure: as §1
VT values were generated directly from dynamic data sampled using ROIs with rank shaping (RS; orthogonalized-functional-base) regularisation of SA ([Turkheimer et al., 2003]) using in-house “Clickfit” software. As previously described by [Turkheimer et al. (2003)], we used the metabolite-corrected IF, a logarithmically spaced basis, an exponential range of bases extending to − 3.2, and the regional tissue TAC. TACs were weighted according to ([Gunn et al., 1998]):(3) Wi=Li/Tiforframei=1,2,3…35 [wi — weight for frame i; Li — length of frame i (seconds); and Ti — rate of true coincidences (per second)].
The VT for each ROI was then obtained as the plateau of the VT(R), where R is the expected signal-to noise ratio that is used as the regularisation parameter (R) in rank-shaping (Fig. 2; ([Turkheimer et al., 2003])).

COc1cccc([C@H]2C[C@@H](N[C@H](C)c3ccccc3)C(=O)N2c2ccc(C(F)(F)F)cc2)c1 [[^11C]MePPEP, (3R,5R)-5-(3-methoxy-phenyl)-3-((R)-1-phenyl-ethylamino)-1-(4-trifluoro-methyl-phenyl)-pyrrolidin-2-one]
LogD7.4 [1]: 4.8 | Ratio pallidum/pons of VT [2]: 2.0 | Mean BS % CV of VT, mean (SD) across regions ([2]; 8 ROIs): 86.8 (24.6) % and 86.8 ± 24.6% | Median % diff (test–retest) of VT, mean (SD) across regions ([2]; 8 ROIs): 65.1 (27.1) % and 65.1 ± 27.1% | ICC of VT ([2]; ACG): 0.23 | Mean BS % CV of VT ([2]; ACG): 81.4% | Median % diff (test–retest) of VT ([2]; ACG): 53.7% | Mean BS % CV of VT ([2]; Accumbens): 131.7% | Median % diff (test–retest) of VT ([2]; Accumbens): 122.1% | Mean BS % CV of VT ([2]; Caudate): 69.9% | Median % diff (test–retest) of VT ([2]; Caudate): 68.5% | Mean BS % CV of VT ([2]; Hippocampus): 81.1% | Median % diff (test–retest) of VT ([2]; Hippocampus): 72.8% | ICC of VT ([2]; IFG): 0.13 | Mean BS % CV of VT ([2]; IFG): 51.9% | Median % diff (test–retest) of VT ([2]; IFG): 61.1% | VT median ([2]; IFG): 8.9 | Mean BS % CV of VT ([2]; Pallidum): 111.3% | Median % diff (test–retest) of VT ([2]; Pallidum): 69.7% | ICC of VT ([2]; Pons): 0.50 | Mean BS % CV of VT ([2]; Pons): 79.0% | Median % diff (test–retest) of VT ([2]; Pons): 40.3% | ICC of VT ([2]; Thalamus): 0.49 | Mean BS % CV of VT ([2]; Thalamus): 87.9% | Median % diff (test–retest) of VT ([2]; Thalamus): 32.7% | Median % diff (test–retest) of mSUV, mean (SD) across regions ([3]; 8 ROIs): 12 ± 10% and 12.0 (10.1) % and 12.0 ± 10.1% | ICC of mSUV ([3]; ACG): 0.86 | Mean %BS-CV of mSUV ([3]; ACG): 27.2% | Median % diff (test–retest) of mSUV ([3]; ACG): 8.8% | ICC of mSUV ([3]; Accumbens): 0.80 | Mean %BS-CV of mSUV ([3]; Accumbens): 27.9% | Median % diff (test–retest) of mSUV ([3]; Accumbens): 6.7% | ICC of mSUV ([3]; Caudate): 0.79 | Mean %BS-CV of mSUV ([3]; Caudate): 30.1% | Median % diff (test–retest) of mSUV ([3]; Caudate): 7.6% | ICC of mSUV ([3]; Hippocampus): 0.84 | Mean %BS-CV of mSUV ([3]; Hippocampus): 27.4% | Median % diff (test–retest) of mSUV ([3]; Hippocampus): 8.3% | mSUV median ([3]; Hippocampus): 2.7 | ICC of mSUV ([3]; IFG): 0.86 | Mean %BS-CV of mSUV ([3]; IFG): 27.3% | Median % diff (test–retest) of mSUV ([3]; IFG): 8.9% | ICC of mSUV ([3]; Pallidum): 0.84 | Mean %BS-CV of mSUV ([3]; Pallidum): 27.1% | Median % diff (test–retest) of mSUV ([3]; Pallidum): 11.1% | mSUV median ([3]; Pallidum): 3.6 | ICC of mSUV ([3]; Pons): 0.47 | Mean %BS-CV of mSUV ([3]; Pons): 63% and 62.6% | Median % diff (test–retest) of mSUV ([3]; Pons): 37% and 36.7% | ICC of mSUV ([3]; Thalamus): 0.83 | Mean %BS-CV of mSUV ([3]; Thalamus): 25.8% | Median % diff (test–retest) of mSUV ([3]; Thalamus): 8.1% | mSUV median ([3]; Thalamus): 2.7 | Ratio pallidum/pons of mSUV ([3]; in vivo): 4.2 | Ratio pallidum/pons of VT [4]: 2.4 | Median % diff (test–retest) of VT, mean (SD) across regions ([4]; 8 ROIs): 15.0 (4.7) % and 15.0 ± 4.6% | ICC of VT ([4]; ACG): 0.86 | Mean BS % CV of VT ([4]; ACG): 34.0% | Median % diff (test–retest) of VT ([4]; ACG): 14.6% | ICC of VT ([4]; Accumbens): 0.73 | Mean BS % CV of VT ([4]; Accumbens): 36.5% | Median % diff (test–retest) of VT ([4]; Accumbens): 18.5% | VT median ([4]; Accumbens): 8.6 | ICC of VT ([4]; Caudate): 0.82 | Mean BS % CV of VT ([4]; Caudate): 42.2% | Median % diff (test–retest) of VT ([4]; Caudate): 11.6% | VT median ([4]; Caudate): 8.1 | ICC of VT ([4]; Hippocampus): 0.81 | Mean BS % CV of VT ([4]; Hippocampus): 35.9% | Median % diff (test–retest) of VT ([4]; Hippocampus): 14.4% | VT median ([4]; Hippocampus): 8.2 | ICC of VT ([4]; IFG): 0.85 | Mean BS % CV of VT ([4]; IFG): 34.8% | Median % diff (test–retest) of VT ([4]; IFG): 15.6% | ICC of VT ([4]; Pallidum): 0.77 | Mean BS % CV of VT ([4]; Pallidum): 39.7% | Median % diff (test–retest) of VT ([4]; Pallidum): 23.3% | ICC of VT ([4]; Pons): 0.90 | Mean BS % CV of VT ([4]; Pons): 32.3% | Median % diff (test–retest) of VT ([4]; Pons): 7.4% | ICC of VT ([4]; Thalamus): 0.85 | Mean BS % CV of VT ([4]; Thalamus): 34.7% | Median % diff (test–retest) of VT ([4]; Thalamus): 14.9%

Values joined by “and” are separate entries in the source; they are usually repeats but may differ in a detail not shown here. Equal entries are not always repeated.
